Data on one compound can be found in paper PMC3179684 (Toxicological Sciences, 2011).

One data set deals with GSH levels in the livers. To be noted: B6C3F1 mice exposed for 4 h to 300 and 400 ppm EO; ref Brown et al., 1998; cited from earlier work.
For a further data set, the target named is T1, epoxide hydrolase (EH) (Homo sapiens, UniProt P07099).
T1 sequence (P07099 1-455): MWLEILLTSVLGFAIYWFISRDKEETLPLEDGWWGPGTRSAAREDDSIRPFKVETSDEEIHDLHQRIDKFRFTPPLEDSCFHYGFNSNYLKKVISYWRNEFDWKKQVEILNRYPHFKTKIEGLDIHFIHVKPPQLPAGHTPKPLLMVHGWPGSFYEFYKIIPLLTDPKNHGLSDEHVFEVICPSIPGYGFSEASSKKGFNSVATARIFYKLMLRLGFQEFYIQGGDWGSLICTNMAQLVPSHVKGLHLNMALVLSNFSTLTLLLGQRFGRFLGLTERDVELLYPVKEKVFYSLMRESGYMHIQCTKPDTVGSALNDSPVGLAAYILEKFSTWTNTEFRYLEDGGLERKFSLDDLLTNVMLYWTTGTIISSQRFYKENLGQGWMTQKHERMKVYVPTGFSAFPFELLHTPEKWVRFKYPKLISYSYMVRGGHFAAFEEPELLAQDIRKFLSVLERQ
Kind of data set: EO elimination in human liver microsomes. To be noted: pooled native human liver microsomes. On the technique in general: Liver microsomes are vesicles of endoplasmic reticulum, rich in cytochrome P450 enzymes.

For `C1CO1` [EO, ethylene oxide], the “GSH levels in the livers” value with GSH levels in the livers was “less than 22 % of the control value”. Moreover, on epoxide hydrolase (EH), the “ratio of Vmax to Km of EH-catalyzed EO elimination” value stood at 1.13 μl/min/mg protein.
